From ChEMBL document CHEMBL1131601, “4-Amino-2-[4-[1-(benzyloxycarbonyl)-2(S)- [[(1,1-dimethylethyl)amino]carbonyl]-piperazinyl]-6, 7-dimethoxyquinazoline (L-765,314): a potent and selective alpha1b adrenergic receptor antagonist” (J Med Chem, 1998)

Tests used:
[1] = biological target: T1, Alpha-1A adrenergic receptor (Rattus norvegicus, UniProt P43140); experiment: Compound was evaluated for its ability to displace [125I]HEAT binding from rat Alpha-1A adrenergic receptor
T1 sequence (P43140 whole entry): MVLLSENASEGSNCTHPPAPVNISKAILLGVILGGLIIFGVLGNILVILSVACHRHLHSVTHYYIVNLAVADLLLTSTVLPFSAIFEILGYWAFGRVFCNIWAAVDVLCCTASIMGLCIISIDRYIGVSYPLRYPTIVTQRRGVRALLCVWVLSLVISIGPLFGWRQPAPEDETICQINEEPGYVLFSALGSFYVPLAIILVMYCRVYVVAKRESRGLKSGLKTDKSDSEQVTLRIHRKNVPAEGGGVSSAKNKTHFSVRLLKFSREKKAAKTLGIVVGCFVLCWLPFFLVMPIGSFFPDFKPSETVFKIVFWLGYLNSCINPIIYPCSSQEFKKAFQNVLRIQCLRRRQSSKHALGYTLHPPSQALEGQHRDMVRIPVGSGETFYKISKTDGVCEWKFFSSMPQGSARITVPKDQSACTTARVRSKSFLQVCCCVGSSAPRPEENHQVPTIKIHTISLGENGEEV

[2] = biological target: T2, Alpha-1A adrenergic receptor (Homo sapiens, UniProt P35348); experiment: Compound was tested for its binding affinity utilizing cloned receptor binding assays by using [125 I]HEAT as radioligand to the human Alpha-1A adrenergic receptor (n >= 2)
T2 sequence (P35348 whole entry): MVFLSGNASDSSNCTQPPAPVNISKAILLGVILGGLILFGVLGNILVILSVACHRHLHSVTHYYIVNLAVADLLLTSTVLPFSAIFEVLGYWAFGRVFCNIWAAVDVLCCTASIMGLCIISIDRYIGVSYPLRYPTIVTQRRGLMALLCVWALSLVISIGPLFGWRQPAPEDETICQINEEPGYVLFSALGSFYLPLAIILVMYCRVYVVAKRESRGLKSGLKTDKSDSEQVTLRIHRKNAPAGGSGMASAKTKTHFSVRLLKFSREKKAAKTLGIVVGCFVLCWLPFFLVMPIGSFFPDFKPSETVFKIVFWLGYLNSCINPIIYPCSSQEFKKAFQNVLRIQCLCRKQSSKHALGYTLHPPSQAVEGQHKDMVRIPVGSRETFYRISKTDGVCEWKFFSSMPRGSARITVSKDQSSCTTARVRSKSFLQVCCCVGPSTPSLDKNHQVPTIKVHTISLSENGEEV

| Ki [1] | Ki [2] | Structure (SMILES) |
| --- | --- | --- |
| 620 nM | 294 nM | COc1ccccc1N1CCN(CCN2C(=O)CC3(CCCC3)CC2=O)CC1 [BMY-7378] |
| 3.9 nM |  | COc1cc2nc(N3CCN(C(=O)C4CCCO4)CC3)nc(N)c2cc1OC (stereo not drawn) [TERAZOSIN] |
